The values below come from ChEMBL document CHEMBL1955756, “Design and synthesis of novel sulfonamide-containing bradykinin hB(2) receptor antagonists. Synthesis and structure-relationships of α,α-tetrahydropyranylglycine” (Bioorg Med Chem, 2012).

Sequences of proteins named here, by UniProt entry; tags and fusion partners are left off.
UniProt P30411, whole entry: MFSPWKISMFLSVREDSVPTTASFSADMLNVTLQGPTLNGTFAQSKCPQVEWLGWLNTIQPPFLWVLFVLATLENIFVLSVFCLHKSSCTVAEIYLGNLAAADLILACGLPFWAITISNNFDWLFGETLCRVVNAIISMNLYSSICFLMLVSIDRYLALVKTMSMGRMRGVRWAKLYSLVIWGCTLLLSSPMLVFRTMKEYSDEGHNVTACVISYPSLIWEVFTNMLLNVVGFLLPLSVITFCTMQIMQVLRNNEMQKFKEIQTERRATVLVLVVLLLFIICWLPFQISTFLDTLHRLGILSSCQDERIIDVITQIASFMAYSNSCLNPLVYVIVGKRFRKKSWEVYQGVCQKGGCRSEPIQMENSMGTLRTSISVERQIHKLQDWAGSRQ

Structures are written as SMILES.

Holding throughout (format): functional, cell-based
In experiment [1] the target is T1, B2 bradykinin receptor (Homo sapiens, UniProt P30411). The experiment can be described thus: Reversible antagonist activity at human bradykinin B2 receptor expressed in dhfr-deficient CHO cells assessed as inhibition of bradykinin-induced inositol monophosphate accumulation at 3 uM preincubated for 15 mins prior bradykinin induction measured after 45 mins washout by liquid scintillation spectrometry. A digest of the protocol: (§1)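 Washout in the IP accumulation assay in CHO/hB2R cells: antagonist (3 µM or 100 nM) pre-incubated 15 min, with medium then fully replaced every 15 min in washed cells. BK (2 nM) added and the reaction stopped after one hour; IP formed quantified. Expressed as % inhibition of time-matched BK responses in vehicle-pre-incubated cells.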

In experiment [2] the target is T1, B2 bradykinin receptor. Nature of the experiment: Reversible antagonist activity at human bradykinin B2 receptor expressed in dhfr-deficient CHO cells assessed as inhibition of bradykinin-induced inositol monophosphate accumulation at 3 uM preincubated for 15 mins prior bradykinin induction measured after 15 mins washout by liquid scintillation spectrometry. A digest of the protocol: as §1

The target of experiment [3] is T1, B2 bradykinin receptor. Nature of the experiment: Reversible antagonist activity at human bradykinin B2 receptor expressed in dhfr-deficient CHO cells assessed as inhibition of bradykinin-induced inositol monophosphate accumulation at 3 uM preincubated for 15 mins prior bradykinin induction measured after 30 mins washout by liquid scintillation spectrometry. The gist of the method:
as §1

For `Cc1cc(C)c2cccc(OCc3c(Cl)ccc(S(=O)(=O)NC4(C(=O)N5CCN(C(=O)[C@@H](N)CCC[N+](C)(C)C)CC5)CCOCC4)c3Cl)c2n1` [FASITIBANT], the figures for the inhibition on B2 bradykinin receptor [1], at B2 bradykinin receptor [2] and on B2 bradykinin receptor [3] were 52%, 96% and 60%, respectively.

As usually defined, the inhibition is the share of the control response that was lost under treatment.
